What is called IC50 is the concentration at which inhibition is half-maximal.

Amino acid sequences for entries named in this document (tags omitted). Residues count along the entry.
UniProt P21675, 1402-1618: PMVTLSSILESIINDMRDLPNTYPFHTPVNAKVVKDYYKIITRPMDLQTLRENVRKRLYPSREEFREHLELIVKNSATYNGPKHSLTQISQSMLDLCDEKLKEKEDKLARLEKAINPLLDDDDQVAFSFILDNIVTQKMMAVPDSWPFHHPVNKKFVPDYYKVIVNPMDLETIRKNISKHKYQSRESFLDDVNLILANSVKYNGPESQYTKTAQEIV
UniProt P21675, 1525-1656: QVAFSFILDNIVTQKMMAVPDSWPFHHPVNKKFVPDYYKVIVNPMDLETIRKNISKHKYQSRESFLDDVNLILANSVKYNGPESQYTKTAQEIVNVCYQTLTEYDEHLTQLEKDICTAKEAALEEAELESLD

Experiment [1] deals with T1, Transcription initiation factor TFIID subunit 1 [1381-1497] (Homo sapiens, UniProt P21675).
T1 construct: 1381-1497
In words: TAF1-BD1 TR-FRET Binding Assay. As for the experimental part:
Specifically, in a 384 well ProxiPlate, TAF1-BDI (0.08 uM final) in 50 mM HEPES (pH 7.5; final), 50 mM NaCl (final), 1 mM TCEP (final), 0.1 mg/mL BSA (final), and 0.069 mM Brij-35 (final) was added either in the presence of DMSO (final 0.2% DMSO) or compound dilution series in DMSO. After a 10 minute incubation at room temperature, biotin-ligand (0.08 uM final) was added. After 10 minutes incubation at room temperature, a mixture Eu-W1024 Anti-6×His antibody (Perkin Elmer ADO 110) and SureLight Streptavidin-Allophycocyanin (SA-APC, Perkin Elmer CR130-100) were added to final concentrations of 0.2 nM antibody and 0.05 uM SA-APC, respectively. After forty minutes of equilibration at room temperature, the plates were read on an Envision instrument and IC50s calculated using a four parameter logistic model (XLFIT).
(In general: TR-FRET usually uses a lanthanide donor and a delayed reading to cut background.)

Experiment [2] concerns the target T2, Transcription initiation factor TFIID subunit 1 [1504-1635] (Homo sapiens, UniProt P21675).
T2 construct: 1504-1635
In words: TR-FRET Binding Assay. As for the experimental part: After a 10 minute incubation at room temperature, biotin-ligand (0.04 uM final) was added. […] After forty minutes of equilibration at room temperature, the plates were read on an Envision instrument and IC50s calculated using a four parameter logistic model (XLFIT).

For `CCC(C)COC(=O)c1c(C)[nH]c2c(=O)n(C)cc(C#CC(C)(C)O)c12` (configuration not stated) [US10202378, Example 149], the IC50 in experiment [1] is 101 nM; in experiment [2] it was 19.4 nM.

The record behind these values is BindingDB's records for patent US10202378 (Genentech, 2019).
